Apparent affinities of Ab-14 variants for a coronavirus HR2 peptide

Binding partner: SARS-CoV-2 spike HR2 peptide, sequence PDVDLGDISGINAS.

Parent: Ab-14, a human scFv built as VH, a (GGGGS)3 linker, VL. Only the CDRs of the heavy chain vary.
VH: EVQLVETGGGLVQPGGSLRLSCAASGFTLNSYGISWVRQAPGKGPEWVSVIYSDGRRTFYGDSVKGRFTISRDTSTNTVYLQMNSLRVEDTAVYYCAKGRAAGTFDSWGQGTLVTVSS
VL: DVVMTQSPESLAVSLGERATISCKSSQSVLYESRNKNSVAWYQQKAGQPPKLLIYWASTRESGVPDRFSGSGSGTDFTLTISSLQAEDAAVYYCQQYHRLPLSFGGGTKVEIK

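The starting antibody came from a phage panning campaign against this peptide. These sequences belong to a second round, designed from the earlier measurements on random variants of the parent. Their group label is 14H_En_Gen (En: ensemble of fine-tuned language models; Gen: genetic algorithm). The scFvs were displayed on barcoded MATa yeast, the peptide on MATalpha yeast. Binding brings cells together so that they mate, and sequencing counts the barcode pairs among the diploids. Read counts were normalised to the haploid input and turned into Kd by a linear fit to BCL2-family pairs of known affinity, for each replicate. Each pool was mated in six replicate cultures.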

Variants are written as CDR1, CDR2 and CDR3 of the heavy chain (limits as in the source). Parent: GFTLNSYGIS, VIYSDGRRTFYGDSVK, GRAAGTFDS. Values are log10 of the apparent Kd in nM; lower means stronger binding. The authors averaged sequences with at least three values out of six and counted those with two or fewer as poor binders. The range of this assay differs from that of the first round, and the authors advise against merging the two. Three control strains display no target. For all heavy chain designs, 1% of the pairings with them gave a signal, with a median of 2.08 and one signal in twenty below 0.84, so weak values seen in few replicates may be background. The control count says in how many pairings with the empty strains this scFv gave a signal, with their mean in brackets. The parent sequence was in this pool as ten entries: three were never detected, three once, and four in most replicates, with averages from 0.34 to 2.37.

CDR-H1,CDR-H2,CDR-H3,"log10 Kd, replicates",signal with controls
GFDLNEYGIS,VIYADGMRTVYADDVK,GENAGTFDI,0.09 -0.14 -0.31 -0.26 -0.37 -0.23,0 of 18
GFDLNEYGIS,VIYADGMRTYYADDVK,GNQAGTFDI,-0.30 -0.32 -0.48 -0.39 -0.24 -0.05,0 of 18
GFDLDEYGIS,VIYADGRRTAYADSVK,GEVAGTFDI,0.45 0.10 0.08 -0.08 -0.03 -0.04,0 of 18
GFDLNEYGIS,VIYADGQRTAYTDSVK,GEVAGTFDV,-0.33 -0.21 0.40 -0.30 -0.11 0.01,0 of 18
GFDLNEYGIS,VIYADGVRTAYADTVK,GENAGTFDV,0.09 -0.08 -0.53 -0.10 -0.34 0.41,0 of 18
GFDLDEYGIS,VIYADGMRTSYADSVK,GNVAGTFDL,-0.54 -0.75 -0.02 -0.72 -0.50 -0.12,0 of 18
GFDLNEYGIS,VIYADGMRTAYADSVK,GSNAGTFDI,0.12 -0.09 0.29 0.47 0.09 0.46,0 of 18
GFDLNEYGIS,VIYADGMRSAYADSVK,GENAGTFDI,-0.24 -0.22 0.03 -0.07 -0.56 -0.39,0 of 18
GFDLDEYGIS,VIYADGQRTFYADSVK,GNNAGTFDV,-0.47 -0.78 -0.64 -0.63 -0.74 -0.55,2 of 18 (2.77)
GFDLDEYGIS,VIYADGMRTAYTDSVK,GENAGTFDL,0.16 0.27 -0.41 -0.02 0.36 0.21,0 of 18
GFDLNEYGIS,VIYADGKRTAYVDSVK,GNQAGTFDI,-0.27 -0.46 -0.13 -0.58 -0.45 -0.41,0 of 18
GFDLNEYGIS,VIYADGSRTAYADSVK,GNQAGTFDM,0.46 0.68 -0.01 0.11 0.21 0.48,1 of 18 (2.22)
GFDLNEYGIS,VIYADGRRTAYADNVK,GEVAGTFDT,-0.36 -0.61 -0.60 -1.03 -0.98 -0.45,0 of 18
GFDLDEYGIS,VIYADGRRTAYSDSVK,GETAGTFDL,-0.35 -0.24 -0.30 -0.64 -0.50 -0.32,0 of 18
GFDLDEYGIS,VIYADGVRTAYADSVK,GGNAGTFDI,0.03 -0.21 -0.31 0.16 -0.04 -0.11,0 of 18
GFDLDEYGIS,VIYADGKRTAYADDVK,GNNAGTFDV,-0.25 0.10 0.01 -0.13 -0.16 0.17,2 of 18 (2.66)
GFDLNEYGIS,VIYADGMRKYYADSVK,GQNAGTFDV,-0.45 -0.64 -0.83 -0.90 -0.72 -0.19,3 of 18 (2.16)
GFDLNEYGIS,VIYADGMRTAYSDSVK,GNVAGTFDT,-0.12 0.00 -0.04 -0.64 -0.62 -0.46,0 of 18
GFDLDEYGIS,VIYADGVRKAYADSVK,GNVAGTFDV,-0.43 -0.49 -0.94 -0.91 -0.97 -0.42,0 of 18
GFDLNEYGIS,VIYADGSRTAYADKVK,GENAGTFDV,0.28 -0.23 0.29 -0.56 -0.16 -0.39,1 of 18 (2.32)
GFDLNEYGIS,VIYADGQRTAYADSVK,GEAAGTFDV,0.84 -0.68 -0.37 -0.60 -0.55 -0.43,0 of 18
GFDLNEYGIS,VIYADGMRTYYADSVK,GTNAGTFDI,-0.79 -0.84 -0.65 -1.00 -0.49 -0.77,0 of 18
GFDLDEYGIS,VIYADGKRTAYADKVK,GNNAGTFDV,-0.41 0.13 -0.09 -0.85 -0.26 0.04,1 of 18 (1.04)
GFDLDEYGIS,VIYADGQRTVYADSVK,GQNAGTFDV,-0.05 -0.59 -0.28 -0.94 -0.75 0.14,0 of 18
GFDLNEYGIS,VIYADGKRTAYADDVK,GNVAGTFDV,-0.89 -1.09 -1.03 -1.00 -0.42 -0.57,0 of 18
GFDLNEYGIS,VIYADGMRTAYVDDVK,GNQAGTFDV,-0.42 -0.39 -0.69 -0.50 -0.78 -0.31,0 of 18
GFDLNEYGIS,VIYADGMRTAYADSVK,GHVAGTFDL,-0.30 -0.32 -0.55 -0.73 -0.60 -0.45,1 of 18 (1.93)
GFDLNEYGIS,VIYADGARTAYADSVK,GENAGTFDV,0.04 -0.38 -0.54 -0.49 -0.58 0.02,0 of 18
GFDLNEYGIS,VIYADGMRKAYADDVK,GNVAGTFDM,0.06 -0.27 0.76 0.33 0.29 0.80,0 of 18
GFDLNEYGIS,VIYADGMRSAYADSVK,GNVAGTFDT,-0.48 -0.88 -0.49 -0.76 -0.20 -0.56,1 of 18 (1.49)
GFDLNEYGIS,VIYADGMRTFYTDSVK,GENAGTFDI,-1.65 -1.06 -1.34 -0.61 -1.44 -1.14,0 of 18

From the AlphaSeq antibody data of Li et al. 2023 (doi:10.1038/s41467-023-39022-2), copy in the FLAb collection.